Assay results published in ChEMBL document CHEMBL1125138, “1,3-Dialkyl-3-acyltriazenes, a novel class of antineoplastic alkylating agents” (J Med Chem, 1990).

Tests used:
A498 = experiment: Evaluated for the inhibitory concentration required to cause growth inhibition of A498Rem- renal cell line using the MTT Cytotoxicity Assay
A-427 = experiment: Evaluated for the inhibitory concentration required to cause growth inhibition of A427Mer- cell line of lung using the MTT Cytotoxicity Assay
A704 = experiment: Evaluated for the inhibitory concentration required to cause growth inhibition of A704Rem- renal cell line using the MTT Cytotoxicity Assay
A673 = experiment: Evaluated for the inhibitory concentration required to cause growth inhibition of A673Mer+ sarcoma cell line using the MTT Cytotoxicity Assay
A 172 = experiment: Evaluated for the inhibitory concentration required to cause growth inhibition of A172Mer- cell line of central nervous system (CNS) using the MTT Cytotoxicity Assay
CCD 19Lu = experiment: Evaluated for the inhibitory concentration required to cause growth inhibition of CCD-19Lu fibroblasts cell line using the MTT Cytotoxicity Assay
DOD-1 = experiment: Evaluated for the inhibitory concentration required to cause growth inhibition of DOD-1 breast cell line using the MTT Cytotoxicity Assay
NCI-H460 = experiment: Evaluated for the inhibitory concentration required to cause growth inhibition of H460 cell line of lung using the Microculture Tetrazolium (MTT) Cytotoxicity Assay
NCI-H358 = experiment: Evaluated for the inhibitory concentration required to cause growth inhibition of H358M cell line of lung using the Microculture Tetrazolium (MTT) Cytotoxicity Assay
NCI-H125 = experiment: Evaluated for the inhibitory concentration required to cause growth inhibition of H125 cell line of lung using the Microculture Tetrazolium (MTT) Cytotoxicity Assay
NCI-H322M = experiment: Evaluated for the inhibitory concentration required to cause growth inhibition of H322M cell line of lung using the Microculture Tetrazolium (MTT) Cytotoxicity Assay
NCI-H23 = experiment: Evaluated for the inhibitory concentration required to cause growth inhibition of H23 cell line of lung using the Microculture Tetrazolium (MTT) Cytotoxicity Assay
LOX IMVI = experiment: Evaluated for the inhibitory concentration required to cause growth inhibition of LOX melanoma cell line using the MTT Cytotoxicity Assay
MCF7 = experiment: Evaluated for the inhibitory concentration required to cause growth inhibition of MCF-7 breast cell line using the MTT Cytotoxicity Assay
[1] = tested on: MAR BEL fibroblasts cell line; experiment: Evaluated for the inhibitory concentration required to cause growth inhibition of MAR BEL fibroblasts cell line using the MTT Cytotoxicity Assay
NCI/ADR-RES = experiment: Evaluated for the inhibitory concentration required to cause growth inhibition of MCF-7ADR breast cell line using the MTT Cytotoxicity Assay
Malme-3M = experiment: Evaluated for the inhibitory concentration required to cause growth inhibition of MALME-3M melanoma cell line using the MTT Cytotoxicity Assay
OVCAR-4 = experiment: Evaluated for the inhibitory concentration required to cause growth inhibition of OVCAR-4 ovarian cell line using the MTT Cytotoxicity Assay
OVCAR-3 = experiment: Evaluated for the inhibitory concentration required to cause growth inhibition of OVCAR-3 ovarian cell line using the MTT Cytotoxicity Assay
HOS-TE85 = experiment: Evaluated for the inhibitory concentration required to cause growth inhibition of TE85Mer+ sarcoma cell line using the MTT Cytotoxicity Assay
TE-671 = experiment: Evaluated for the inhibitory concentration required to cause growth inhibition of TE-671 cell line of central nervous system (CNS)using the MTT Cytotoxicity Assay
WiDr = experiment: Evaluated for the inhibitory concentration required to cause growth inhibition of WiDR colon cell line using the MTT Cytotoxicity Assay
U-251 = experiment: Evaluated for the inhibitory concentration required to cause growth inhibition of U251 cell line of central nervous system (CNS) using the MTT Cytotoxicity Assay
RPMI-7951 = experiment: Evaluated for the inhibitory concentration required to cause growth inhibition of RPMI7951 melanoma cell line using the MTT Cytotoxicity Assay
NCI-H520 = experiment: Evaluated for the inhibitory concentration required to cause growth inhibition of H522 cell line of lung using the Microculture Tetrazolium (MTT) Cytotoxicity Assay
SK-MEL-5 = experiment: Evaluated for the inhibitory concentration required to cause growth inhibition of SK-MEL-5 melanoma cell line using the MTT Cytotoxicity Assay
A549 = experiment: Evaluated for the inhibitory concentration required to cause growth inhibition of A549Rem- cell line of lung using the MTT Cytotoxicity Assay

`CCOP(=O)(OCC)N(C)/N=N\C` was tested. Which IC50 (A498) did it give?
The IC50 was 22 µM.

And the IC50 (A-427)?
The IC50 was 7 µM.

And the IC50 (A704)?
The IC50 was 37 µM.

And the IC50 (A673)?
The IC50 was 25 µM.

What about the IC50 (A 172) of the same molecule?
Its IC50 is 14 µM.

And the IC50 (CCD 19Lu)?
The IC50 was 37 µM.

What about the IC50 (DOD-1) of the same molecule?
The IC50 was 30 µM.

What about the IC50 (NCI-H460) of the same molecule?
Its IC50 is 42 µM.

And the IC50 (NCI-H358)?
Its IC50 is 50 µM.

What about the IC50 (NCI-H125) of the same molecule?
The IC50 was 29 µM.

And the IC50 (NCI-H322M)?
Its IC50 is 25 µM.

And the IC50 (NCI-H23)?
Its IC50 is 14 µM.

And the IC50 (LOX IMVI)?
Its IC50 is 20 µM.

And the IC50 (MCF7)?
Its IC50 is 20 µM.

What about the IC50 [1] of the same molecule?
Its IC50 is 40 µM.

And the IC50 (NCI/ADR-RES)?
The IC50 was 23 µM.

What about the IC50 (Malme-3M) of the same molecule?
Its IC50 is 15 µM.

And the IC50 (OVCAR-4)?
Its IC50 is 20 µM.

What about the IC50 (OVCAR-3) of the same molecule?
Its IC50 is 27 µM.

And the IC50 (HOS-TE85)?
Its IC50 is 20 µM.

What about the IC50 (TE-671) of the same molecule?
The IC50 was 28 µM.

What about the IC50 (WiDr) of the same molecule?
The IC50 was 20 µM.

What about the IC50 (U-251) of the same molecule?
The IC50 was 25 µM.

What about the IC50 (RPMI-7951) of the same molecule?
Its IC50 is 26 µM.

What about the IC50 (NCI-H520) of the same molecule?
The IC50 was 18 µM.

What about the IC50 (SK-MEL-5) of the same molecule?
The IC50 was 18 µM.

And the IC50 (A549)?
The IC50 was 30 µM.
